In patent publication US6251950A, “Aliphatic propargylamines as cellular rescue agents” (University of Saskatchewan, priority 1998, dated 2001):
pIC50: −log10 of the molar value.

The chains behind the UniProt entries cited, without tags or fusion partners.
UniProt P19643, whole entry: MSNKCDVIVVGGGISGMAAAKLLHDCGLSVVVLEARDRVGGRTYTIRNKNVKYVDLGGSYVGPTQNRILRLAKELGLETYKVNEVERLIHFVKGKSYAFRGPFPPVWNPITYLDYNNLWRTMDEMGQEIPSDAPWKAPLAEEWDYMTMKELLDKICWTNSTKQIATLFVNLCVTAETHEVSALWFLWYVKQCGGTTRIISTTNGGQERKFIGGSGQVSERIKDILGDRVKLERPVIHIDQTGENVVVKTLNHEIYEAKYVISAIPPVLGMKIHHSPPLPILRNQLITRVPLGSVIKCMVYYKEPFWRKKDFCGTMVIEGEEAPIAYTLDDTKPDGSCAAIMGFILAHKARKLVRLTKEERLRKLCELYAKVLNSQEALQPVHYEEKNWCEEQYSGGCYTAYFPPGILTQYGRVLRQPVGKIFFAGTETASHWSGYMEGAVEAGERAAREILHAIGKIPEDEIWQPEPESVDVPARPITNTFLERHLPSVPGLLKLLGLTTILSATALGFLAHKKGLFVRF

Assays:
[1] = molecular target: rat liver mitochondrial monoamine oxidase B (Rattus norvegicus, UniProt P19643); assay: biochemical; conditions: for Comparison to most effective MAO-B inhibitor in group: in vitro, relative to most effective inhibitor in group
[2] = test system: rat brain noradrenergic axons and terminals; conditions: in vivo; cited from earlier work

SMILES | pIC50 [1] | Comparison to most effective MAO-B inhibitor in group [1] [%] | DSP-4-induced degeneration [2]
C#CCN(C)[C@H](C)CC [Example R-2BuMP, (R)-N-(2-butyl)-N-methylpropargylamine] | 6.00 | 100 | 
C#CCN(C)[C@@H](C)CC [Example S-2BuMP, (S)-N-(2-butyl)-N-methylpropargylamine] | 5.70 | 50 | 
C#CCN(C)[C@H](C)Cc1ccccc1 [R-deprenyl] |  |  | prevent
